One compound from patent US4835182A (priority 1987, dated 1989) can be followed below.

This data set is described as follows: Brain/plasma concentration integral ratio following administration. To be noted: following administration to animal model or humans.

In the case of `O=C(O)Cc1ccc(N(CCCl)CCCl)cc1`, the mean brain/plasma concentration integral ratio worked out at 0.01.
